Earlier results on 1 substance are cited in PMC2630426 (Journal of medicinal chemistry, 2008).

In the data set the target is δ opioid receptor (Rattus norvegicus, UniProt P33533). The following applies: read-out: IC50^δ; somatostatin-derived μ opioid antagonist; cited from earlier work.

With “H-D-Phe-c[Cys-Tyr-D-Trp-Orn-Thr-Pen]-Thr-NH2 (disulfide) [CTOP]”, the 50% inhibitory concentration (IC50) – broadly, the concentration that inhibits the measured activity by half – was 13.5 µM.
